# JMJD2E inh = inhibitors of human JMJD2E histone demethylase; AID 2147; hit rate 1.6% among 230,000; JMJD2E catalytic domain, FDH-coupled NADH fluorescence (FDH is formaldehyde dehydrogenase); B2RXH2; Potency, µM (doses to about 57.1 µM), for the others: at the top dose activity change, negative = inhibition, actives largely listed as inhibitors; active = well fitted inhibition curve with a large enough effect, not every such curve was filed as active; inconclusive = small, poorly fitted or top-dose-only effect, or another doubt; inactive = no such curve, though single readings can be large or run the other way;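 also: potency is read from the fitted curve at half-maximal effect; 0% = wells with enzyme and -100% = buffer wells without enzyme; nearly all actives have a fitted effect of over 50% in size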
# G9a inh = inhibitors of human histone lysine methyltransferase G9a. hit rate 8.8% among 350,000. G9a H3K9 monomethylation, AlphaScreen, 2 h. Potency, µM (series often up to 102 µM), for inactives: at the top dose activity, negative = inhibition, most hits filed as inhibitors. Q96KQ7. AID 504332; also: potency is read from the fitted curve at half-maximal effect; % is scaled to controls: 0 for no effect and ±100 for the full control effect; nearly all actives have a fitted effect of over 75% in size
#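 Methyltransferase reactions run at room temperature for 2 h (20 nM enzyme, 500 nM biotin-H3K9 peptide, 20 uM SAM) after a 15 min compound preincubation; product detected by AlphaScreen beads and anti-H3K9me1 antibody.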
# Sfp inh = Sfp phosphopantetheinyl transferase inhibition; 310,000 tested, 3.5% active; Potency, µM, inactives show max response, negative = inhibition, hits mostly inhibitors; AID 1490; Q9F4F7; Biochemical Sfp PPTase activity, qHTS; active = well fitted inhibition curve with a large enough effect; inconclusive = small, poorly fitted or top-dose-only effect, or another doubt; inactive = no such curve, though single readings can be large or run the other way;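 also: the enzyme is Sfp with the accession as filed and its product quenches rhodamine fluorescence; potency is read from the fitted curve at half-maximal effect; 0% = enzyme reaction without inhibitor and -100% = no enzyme wells; top concentration of the series not given in the record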
#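 Compounds were incubated with enzyme (final 15 nM) for 15 min at room temperature before substrate addition started the reaction. Fluorescence at 525 nm excitation, 598 nm emission was recorded immediately and after 30 minutes.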
# LMNA splice mod = modulators of lamin A splicing. Potency, µM (top dose mostly 46.1 µM), for the others: at the top dose ratio change, negative = inhibition, actives largely listed as inhibitors. AID 1487. hit rate 0.01% among 200,000. HeLa LMNA splicing GFP/RFP minigene ratio, 48 h; active = well fitted inhibition curve with a large enough effect in the signal ratio, with a control signal flat, not every such curve was filed as active; inconclusive = small, poorly fitted or top-dose-only effect, or effect the other way, or a change in a side signal; the % refers to the signal ratio; also: potency is read from the fitted curve at half-maximal effect; % is scaled to controls: 0 for no effect and ±100 for the full control effect
#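 S3 HeLa stable clones carrying a lamin A-EGFP splicing minigene plus DsRed2 were seeded at 600 cells/well in Opti-MEM with 2% FBS, pin-dosed and incubated 48 h at 37°C. Acumen cytometry (488 nm) gave the GFP/RFP total-intensity ratio.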
# ALDH1A1 inh = inhibitors of human aldehyde dehydrogenase 1A1 | P00352 | Purified ALDH1A1, NADH fluorescence, propionaldehyde substrate | Potency, µM (top dose mostly 75.3 µM), for the others: at the highest dose activity, negative = inhibition, usual class: inhibitors | hit rate 7.3% among 220,000; active = well fitted inhibition curve with a large enough effect, not every such curve was filed as active; inconclusive = small, poorly fitted or top-dose-only effect, or another doubt; inactive = no such curve, though single readings can be large or run the other way;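 also: potency is read from the fitted curve at half-maximal effect; plate controls were no enzyme wells and a reference inhibitor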
# miR-21 reporter = miR-21 reporter, rising signal | HeLa miR-21 FLuc reporter, luciferase, 48 h | Potency, µM (top dose mostly 38.3 µM), inactives show at the top dose reporter change, positive = more light | 340,000 tested, under 10 active | AID 2288; active = well fitted rising curve with a large enough effect; inconclusive = small, poorly fitted or top-dose-only effect; inactive = no such curve, though single readings can be large or run the other way;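 further: % of control where 0% means no effect; miR-21 action dims this reporter so a rising signal means less miR-21 action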
#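 HeLa cells endogenously expressing miR-21, stably carrying CMV-driven firefly luciferase with a downstream miR-21 binding site, 2000 cells/well. Titrations up to approximately 40 uM, 48 hours; luciferase luminescence read.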
# The depositor's hits bear a star; ? = inconclusive; nt = no result; [ ] = dose if it differs, or a comment. Most compounds without a hit are left out; they make up all but 13% or so of the library. Unless noted, calls follow the shape of the dose curve; as a rule, active = well fitted curve in the direction sought with a large enough effect; inconclusive = small, poorly fitted or top-dose-only effect, or another doubt; inactive = no such curve, though single readings can be large; an effect the other way counts as inactive or inconclusive.
[1] COc1ccccc1CNC(=O)c1ccc(CSc2nc3ccncc3n2Cc2cccc(F)c2)cc1
[2] Cc1cc(C)c2c(CN3CCN(Cc4ccccc4)CC3)cc(=O)oc2c1C
[3] O=c1cc(CN2CCN(Cc3ccccc3)CC2)c2cc3c(cc2o1)CCC3
[4] Cc1ccc2oc(=O)cc(CN3CCN(Cc4ccccc4)CC3)c2c1
[5] COc1ccc2oc(=O)cc(CN3CCN(Cc4ccccc4)CC3)c2c1

Compound | 1 | 2 | 3 | 4 | 5
JMJD2E inh | nt | nt | ? | nt | nt
G9a inh | ? | 50µM* | ? | 50µM* | -35%[59 µM]
Sfp inh | nt | -7% | -11% | 2% | nt
LMNA splice mod | nt | nt | nt | nt | nt
ALDH1A1 inh | nt | nt | nt | nt | nt
miR-21 reporter | 7% | -1% | -5% | -3% | 27%

[6] CCc1ccc2c(CN3CCN(Cc4ccccc4)CC3)cc(=O)oc2c1
[7] COc1cccc(CN(C)Cc2cc(=O)oc3cc(O)c(Cl)cc23)c1
[8] Cc1cc(C)c2c(CN3CC(C)OC(C)C3)cc(=O)oc2c1C (stereo unspecified)
[9] CC(NS(=O)(=O)c1ccc(Br)s1)c1ccccc1 (stereo unspecified)
[10] CCOC(=O)n1c(=O)oc2ccc(Cl)cc21

Compound | 6 | 7 | 8 | 9 | 10
JMJD2E inh | nt | nt | nt | nt | -3%
G9a inh | 71µM* | 45µM* | 25% | -7% | 20µM*
Sfp inh | -2% | 79µM* | 8% | 7% | 14%
LMNA splice mod | nt | nt | nt | nt | -10%
ALDH1A1 inh | nt | nt | nt | nt | ?
miR-21 reporter | -5% | -12% | -5% | 5% | -9%

[11] CCc1cc2c(CN3CCN(Cc4ccccc4)CC3)cc(=O)oc2cc1O
[12] CCOC(=O)N1CCN(CC(=O)Nc2ccc(F)cc2F)CC1
[13] CCOC(=O)Nc1ccc2c(CN3CCC(C(=O)OC)CC3)cc(=O)oc2c1
[14] CCc1ccc2c(CN3CCC(C(=O)OC)CC3)cc(=O)oc2c1
[15] CCOC(=O)N1CCN(Cc2ccc(F)cc2F)CC1

Compound | 11 | 12 | 13 | 14 | 15
JMJD2E inh | nt | 2% | nt | nt | -22%
G9a inh | 45µM* | 2% | -29% | 50µM* | 11µM*
Sfp inh | -12% | 8% | 8% | 2% | -24%
LMNA splice mod | nt | nt | nt | nt | 5%
ALDH1A1 inh | nt | 12% | nt | nt | ?
miR-21 reporter | 16% | -2% | -3% | -10% | -5%

[16] Cc1c(O)ccc2c(CN3CCN(Cc4ccccc4)CC3)cc(=O)oc12
[17] CCc1ccc(OCC(=O)Nc2ccc3c(c2)c2ccccc2n3CC)c(Br)c1
[18] COc1ccccc1OC(C)C(=O)N1CC(=O)Nc2ccccc21 (stereo unspecified)
[19] OC1OC[C@H](O)[C@@H](O)[C@@H]1O (stereo partly specified)
[20] CCc1cc2c(CN(C)Cc3ccccc3F)cc(=O)oc2cc1O

Compound | 16 | 17 | 18 | 19 | 20
JMJD2E inh | nt | nt | nt | nt | nt
G9a inh | -13% | -27%[59 µM] | 18% | nt | 50µM*
Sfp inh | 9% | nt | 10% | 1% | 14%
LMNA splice mod | nt | nt | nt | nt | nt
ALDH1A1 inh | nt | nt | nt | nt | nt
miR-21 reporter | 5% | 1% | 8% | nt | 24%

[21] CC1CCN(Cc2cc(=O)oc3ccc(C(C)C)cc23)CC1
[22] CCOC(=O)N1CCN(Cc2cc(=O)oc3ccc(Cl)cc23)CC1
[23] CCc1ccc2c(CN3CCN(S(=O)(=O)c4cccs4)CC3)cc(=O)oc2c1
[24] CCN1CCN(Cc2cc(=O)oc3ccc(Cl)cc23)CC1
[25] CC(C)c1ccc2oc(=O)cc(CN3CCCCC3)c2c1

Compound | 21 | 22 | 23 | 24 | 25
JMJD2E inh | nt | ? | -6% | -5% | nt
G9a inh | 24% | 56µM* | 4%[59 µM] | ? | 71µM*
Sfp inh | -10% | 4% | 8% | 3% | -1%
LMNA splice mod | nt | 2% | ? | 4% | nt
ALDH1A1 inh | nt | ? | 13µM* | ? | nt
miR-21 reporter | -2% | -7% | -5% | -13% | -14%

[26] O=C(NCCC(=O)N1CCN(S(=O)(=O)c2ccccc2Cl)CC1)Nc1ccccc1
[27] Cc1onc(-c2ccccc2)c1C(=O)N(CC(C)C)c1c(N)n(CC(C)C)c(=O)[nH]c1=O
[28] CN1CCN(c2cc3c(cc2F)c(=O)c(C(=O)O)cn3-c2ccc(F)cc2)CC1
[29] O=C(O)c1cn(-c2ccc(N3CCCC3)c(F)c2)c2c(F)c(F)c(F)cc2c1=O
[30] CN1CCN(CCCNC(=O)Nc2cccc3ccccc23)CC1
[31] CCN(C(=O)CN1CCN(C)CC1)c1cccc2ccccc12
[32] CCCS(=O)(=O)c1ncc(Cl)c(C(=O)N2CCN(c3ccc(OC)cc3)CC2)n1

Compound | 26 | 27 | 28 | 29 | 30 | 31 | 32
JMJD2E inh | nt | nt | nt | ? | ? | ? | nt
G9a inh | -11%[2.33 µM] | -19%[12.7 µM] | ? | 45µM* | ? | 1.8µM* | 11µM*
Sfp inh | nt | nt | 9% | 1% | 4% | -13% | nt
LMNA splice mod | nt | nt | ? | nt | -6% | -3% | ?
ALDH1A1 inh | nt | nt | nt | 16µM* | -7% | ? | nt
miR-21 reporter | nt | nt | nt | -3% | -5% | 1% | ?

# Sorted by value in G9a inh (low to high): 4 from the list above
no.	SMILES	G9a inh
10	CCOC(=O)n1c(=O)oc2ccc(Cl)cc21	20µM*
20	CCc1cc2c(CN(C)Cc3ccccc3F)cc(=O)oc2cc1O	50µM*
22	CCOC(=O)N1CCN(Cc2cc(=O)oc3ccc(Cl)cc23)CC1	56µM*
6	CCc1ccc2c(CN3CCN(Cc4ccccc4)CC3)cc(=O)oc2c1	71µM*

# Retrieved one by one from the entries so far:
[16] Cc1c(O)ccc2c(CN3CCN(Cc4ccccc4)CC3)cc(=O)oc12
[11] CCc1cc2c(CN3CCN(Cc4ccccc4)CC3)cc(=O)oc2cc1O

Compound | 16 | 11
JMJD2E inh | nt | nt
G9a inh | -13% | 45µM*
Sfp inh | 9% | -12%
LMNA splice mod | nt | nt
ALDH1A1 inh | nt | nt
miR-21 reporter | 5% | 16%

# Assay outcomes deposited in PubChem by National Center for Advancing Translational Sciences (NCATS).
